DT40 TDP1 no CPT: qHTS for Inhibitors of human tyrosyl-DNA phosphodiesterase 1 (TDP1): qHTS in cells in absence of CPT; DT40 Tdp1-/- hTDP1 cells, no CPT, ATP luminescence, 48 h; Potency, µM (top dose mostly 46.2 µM), for the others: top-dose activity change, negative = growth inhibition, most hits filed as inhibitors; 420,000 tested, 15% active; AID 686978, 2013; also: potency is read from the fitted curve at half-maximal effect; % is scaled to controls: 0 for no effect and ±100 for the full control effect; nearly all actives have a fitted effect of over 55% in size
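Cells were dispensed at 400 per well, compounds added by pin tool, plates incubated ≥48 hr at 37 °C, then CellTiter-Glo added for 30 min at room temperature before luminescence reading. Line: DT40 Tdp1-/- complemented with hTDP1; camptothecin omitted.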
DT40 TDP1 CPT: growth inhibition of DT40 Tdp1-/-;hTDP1 cells with camptothecin (screen for TDP1 inhibitors) | chicken DT40 Tdp1-/-;hTDP1 cells + 20 nM CPT, ATP luminescence, 48 h | 420,000 tested, 12% active | AID 686979 | Potency, µM (series often up to 46.2 µM), for the others: at the top dose activity change, negative = growth inhibition, most hits filed as inhibitors; also: potency is read from the fitted curve at half-maximal effect; % is scaled to controls: 0 for no effect and ±100 for the full control effect; nearly all actives have a fitted effect of over 55% in size
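Chicken DT40 Tdp1-/- cells stably complemented with human TDP1 were seeded at 400 cells/well in medium containing 20 nM camptothecin, exposed to pin-transferred compounds, and grown at 37 °C for at least 48 hr. Viability was read as ATP luminescence.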
miR-21 reporter: miR-21 reporter, rising signal | HeLa miR-21 FLuc reporter, luciferase, 48 h | Potency, µM (top dose mostly 38.3 µM), inactives show at the top dose reporter change, positive = more light | 340,000 tested, under 10 active | AID 2288; active = well fitted rising curve with a large enough effect; inconclusive = small, poorly fitted or top-dose-only effect; inactive = no such curve, though single readings can be large or run the other way;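 further: % of control where 0% means no effect; miR-21 action dims this reporter so a rising signal means less miR-21 action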
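Compounds were titrated across several concentrations (up to approximately 40 uM) and incubated 48 hours with HeLa miR-21-FLuc reporter cells (miR-21 target sequence downstream of FLuc, endogenous miR-21). Readout was firefly luciferase luminescence after lytic detection reagent.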
TDP1 inh: TDP1 (human) enzyme inhibition. Q9NUW8. recombinant TDP1, AlphaScreen DNA substrate cleavage. Potency, µM (highest dose often 130 µM), without a hit: top-dose activity change, negative = inhibition, most hits filed as inhibitors. 350,000 tested, 0.28% active. AID 485290; also: potency is read from the fitted curve at half-maximal effect; % is scaled to controls: 0 for no effect and ±100 for the full control effect; nearly all actives have a fitted effect of over 40% in size
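Tdp1 1 nM final; 15 min RT w/ cpd; substrate 15 nM, 5 min; beads 10 ug/ml, 10 min; AlphaScreen read. Neg ctrl: no enzyme.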
uPA generation: blocks generation of uPA at the cell surface; AID 540303; 330,000 tested, 0.31% active; Potency, µM (highest dose often 38.3 µM), inactives show at the top dose activity change, negative = inhibition, actives largely listed as inhibitors; cell surface uPA generation assay, qHTS; active = well fitted inhibition curve with a large enough effect; inconclusive = small, poorly fitted or top-dose-only effect; inactive = no such curve, though single readings can be large or run the other way; tested in mouse RAW 264.7 cells; also: potency is read from the fitted curve at half-maximal effect; % is scaled to controls: 0 for no effect and ±100 for the full control effect; nearly all actives have a fitted effect of over 55% in size
Numbers without * were called inactive; ? = inconclusive; nt = no result given; [ ] = dose if it differs, or a comment. This is a sample that favours compounds with a hit; in the whole collection about 16% have one here. Unless noted, calls follow the shape of the dose curve; as a rule, active = well fitted curve in the direction sought with a large enough effect; inconclusive = small, poorly fitted or top-dose-only effect, or another doubt; inactive = no such curve, though single readings can be large; an effect the other way counts as inactive or inconclusive.

Preview, 2 compounds:
1	CCS(=O)(=O)Nc1ccc(C2=NN(C(=O)c3ccco3)C(c3ccco3)C2)cc1 (stereo not drawn)
2	CC(=O)N1N=C(c2cccc(NS(=O)(=O)c3ccc(C)cc3)c2)CC1c1ccco1 (stereo not drawn)

screen / no. | 1 | 2
DT40 TDP1 no CPT | 4.11µM* | ?
DT40 TDP1 CPT | 4.61µM* | ?
miR-21 reporter | nt | 11.2%
TDP1 inh | 1.9% | 4.1%
uPA generation | ? | -1.4%

All compounds of this part, previewed entries included:
1	CCS(=O)(=O)Nc1ccc(C2=NN(C(=O)c3ccco3)C(c3ccco3)C2)cc1 (stereo not drawn)
2	CC(=O)N1N=C(c2cccc(NS(=O)(=O)c3ccc(C)cc3)c2)CC1c1ccco1 (stereo not drawn)
3	CCS(=O)(=O)Nc1ccc(C2=NN(C(=O)c3ccco3)C(c3cccs3)C2)cc1 (stereo not drawn)
4	Cc1cc(C)cc(N(CC(=O)NC2CCCCC2)C(=O)CCC(=O)Nc2cc(C)ccn2)c1
5	COc1ccc(C(=O)OCC(=O)NC2CC2)cc1S(=O)(=O)N(C)Cc1ccccc1
6	CC(C)Cn1c(=O)c2sccc2n2c(CCCC(=O)NC3CCN(Cc4ccccc4)CC3)nnc12

screen / no. | 1 | 2 | 3 | 4 | 5 | 6
DT40 TDP1 no CPT | 4.11µM* | ? | ? | -14.4% | -3.9% | ?
DT40 TDP1 CPT | 4.61µM* | ? | ? | -14.0% | 3.8% | 2.8%
miR-21 reporter | nt | 11.2% | 16.8% | -3.0% | nt | 2.0%
TDP1 inh | 1.9% | 4.1% | 6.1% | 3.1% | 2.3% | -3.8%
uPA generation | ? | -1.4% | -6.3% | 1.0% | -0.7% | -0.7%

7	CS(=O)(=O)Nc1cccc(C2=NN(C(=O)c3ccccc3Cl)C(c3ccccc3O)C2)c1 (stereo not drawn)
8	Cc1ccccc1C(=O)N1N=C(c2cccc(NS(C)(=O)=O)c2)CC1c1cccs1 (stereo not drawn)
9	COc1ccc(-c2noc(CSc3nc(N)cc(=O)[nH]3)n2)cc1
10	CCc1cc(=O)[nH]c(SCc2nc(-c3ccc(C(F)(F)F)cc3)no2)n1
11	COc1ccc(-c2noc(CSc3nc(-c4ccccc4)cc(=O)[nH]3)n2)cc1OC
12	CCc1cc(=O)[nH]c(SCc2nc(-c3ccccc3C)no2)n1

screen / no. | 7 | 8 | 9 | 10 | 11 | 12
DT40 TDP1 no CPT | 29.1µM* | -23.5% | 18.4µM* | 16.4µM* | -14.9% | ?
DT40 TDP1 CPT | 14.6µM* | -27.0% | 16.4µM* | 23.1µM* | -4.1% | ?
miR-21 reporter | -3.5% | -3.0% | 2.7% | -0.9% | -2.3% | -0.6%
TDP1 inh | 5.1% | nt | 3.1% | 0.0% | -6.6% | 8.1%
uPA generation | -2.1% | -3.2% | -10.3% | nt | 2.1% | nt

13	O=c1cc(-c2ccccc2)nc(SCc2nc(-c3ccc(Cl)cc3)no2)[nH]1
14	Cc1ccc2nc(SCc3nc(-c4ccc(Cl)cc4)no3)[nH]c2c1
15	COC(=O)c1ccc(C(=O)OC)c(NC(=S)N2CCC(N3CCCCC3)CC2)c1
16	CC(C)CCN(C(=O)c1csnn1)C(C(=O)NC1CCCCC1)c1ccc(F)cc1 (stereo not drawn)
17	Cc1noc(C)c1CSc1nc2ccccc2nc1NS(=O)(=O)c1ccc(Cl)cc1
18	Cc1ccc(-c2cc(-c3ccccc3)c(C#N)c(N)n2)o1

screen / no. | 13 | 14 | 15 | 16 | 17 | 18
DT40 TDP1 no CPT | -7.5% | 23.1µM* | -2.9% | ? | 11.6µM* | 14.6µM*
DT40 TDP1 CPT | -10.8% | 16.4µM* | 13.6% | -16.9% | 14.6µM* | 23.1µM*
miR-21 reporter | -4.5% | 23.9% | -0.3% | 1.9% | 3.8% | 0.2%
TDP1 inh | 5.4% | 3.2% | 2.3% | nt | 6.2% | 1.0%
uPA generation | nt | nt | -83.1% | 6.5% | -17.0% | -8.1%

19	N#Cc1c(-c2ccncc2)cc(-c2ccc(F)cc2)nc1N
20	Cc1ccc(-c2cc(-c3ccc(F)cc3)nc(N)c2C#N)o1
21	CNS(=O)(=O)c1cn(CC(=O)N2CCN(c3ccc(C)cc3C)CC2)cc1S(=O)(=O)NC
22	COc1ccc2oc(-c3ccccc3)c(OC)c(=O)c2c1
23	Cc1c(Cl)cccc1NC(=O)C1CCCCC1
24	COc1ccc(C)cc1NS(=O)(=O)c1ccc2c3c(cccc13)C(=O)N2

screen / no. | 19 | 20 | 21 | 22 | 23 | 24
DT40 TDP1 no CPT | -16.2% | 18.4µM* | -29.2% | ? | nt | ?
DT40 TDP1 CPT | 5.9% | ? | -13.7% | ? | nt | 4.11µM*
miR-21 reporter | -6.9% | -3.4% | 8.5% | nt | 1.3% | 19.9%
TDP1 inh | nt | -5.2% | -5.6% | 15.5% | -3.0% | 1.3%[12.3 µM]
uPA generation | -10.1% | -8.6% | nt | nt | nt | nt

25	Cc1ccc(NC(=O)c2ccccc2)cc1
26	Cc1ccc(NC(=O)C2=C(c3ccccc3)S(=O)(=O)CCS2(=O)=O)cc1
27	O=C(C1=C[C@H](c2ccc3c(c2)OCO3)C[C@H](OCc2ccc(CO)cc2)O1)N1CCN(Cc2ccc3c(c2)OCO3)CC1
28	O=C(NCc1ccccc1)C1=C[C@H](c2ccc3c(c2)OCO3)C[C@H](OCc2ccc(CO)cc2)O1
29	O=C(NCc1ccccc1)C1=C[C@@H](c2ccc3c(c2)OCO3)C[C@@H](OCc2ccc(CO)cc2)O1
30	O=C(C1=C[C@@H](C2CC2)C[C@@H](OCc2ccc(CO)cc2)O1)N1CCN(Cc2ccc3c(c2)OCO3)CC1

screen / no. | 25 | 26 | 27 | 28 | 29 | 30
DT40 TDP1 no CPT | -17.4% | 0.581µM* | ? | ? | ? | 20.6µM*
DT40 TDP1 CPT | -6.0% | 0.461µM* | ? | 6.51µM* | ? | ?
miR-21 reporter | -44.6% | ? | 15.0% | nt | nt | 16.1%
TDP1 inh | 4.1% | 2.6% | 3.8% | nt | nt | 2.6%
uPA generation | -4.0% | 2.5% | 5.8% | 3.1% | -7.8% | 6.1%

31	O=C(C1=C[C@H](c2ccccc2)C[C@H](OCc2ccc(CO)cc2)O1)N1CCN(Cc2ccc3c(c2)OCO3)CC1
32	O=C(C1=C[C@H](c2csc3ccccc23)C[C@H](OCc2ccc(CO)cc2)O1)N1CCN(Cc2ccc3c(c2)OCO3)CC1
33	CC(=O)N(CCc1ccccc1C)Cc1cc2ccc(C)cc2[nH]c1=O
34	CN1CCN(C(=O)C2=C[C@@H](c3csc4ccccc34)C[C@@H](OCc3ccc(CO)cc3)O2)CC1
35	Cc1ccc(C)c(C(=O)OCC(=O)Nc2cccc(S(=O)(=O)N3CCCCC3)c2)c1
36	CCOc1ccc(NC(=O)COC(=O)c2cc(S(=O)(=O)N3CCCC3)ccc2C)cc1

screen / no. | 31 | 32 | 33 | 34 | 35 | 36
DT40 TDP1 no CPT | 20.6µM* | ? | ? | 18.4µM* | 10.3µM* | ?
DT40 TDP1 CPT | ? | 16.4µM* | -17.3% | 20.6µM* | 18.4µM* | 20.6µM*
miR-21 reporter | 19.5% | 23.2% | -8.1% | -1.7% | nt | nt
TDP1 inh | 3.8% | 5.1% | nt | -2.6% | 1.6% | -0.4%
uPA generation | 13.0% | ? | 1.4% | 2.0% | ? | 9.4%

37	Cc1ccc(S(=O)(=O)N2CCCCC2)cc1C(=O)OC(C)C(=O)NCC1CCCCC1 (stereo not drawn)
38	CCOc1ccc(-c2csc(C3COc4ccccc4O3)n2)cc1 (stereo not drawn)
39	C=CCNC(=O)/C(C#N)=C/c1cn(-c2ccccc2)nc1-c1ccc(OC)c([N+](=O)[O-])c1
40	O=C(/C=C/c1ccco1)N1CCN(S(=O)(=O)c2cccc([N+](=O)[O-])c2)CC1
41	Cn1c(Sc2ccccc2Cl)c(C=O)c2ccccc21
42	Cn1c(Oc2ccc(F)cc2F)c(C=O)c2ccccc21
43	Cc1ccc(Oc2c(C=O)c3ccccc3n2C)cc1
44	Cn1c(Oc2ccc(Cl)cc2)c(C=O)c2ccccc21
45	COc1ccc(Oc2c(C=O)c3ccccc3n2C)cc1

screen / no. | 37 | 38 | 39 | 40 | 41 | 42 | 43 | 44 | 45
DT40 TDP1 no CPT | 18.4µM* | -4.9% | ? | 0.9% | ? | ? | ? | 25.9µM* | ?
DT40 TDP1 CPT | ? | -21.8% | 2.8% | ? | ? | -12.2% | 3.26µM* | ? | ?
miR-21 reporter | nt | nt | -13.4% | nt | 6.7% | 3.7% | 0.9% | 16.6% | 4.7%
TDP1 inh | nt | nt | -2.6% | -4.1% | -5.2% | 2.5% | 0.0% | -3.1% | 0.0%
uPA generation | -4.9% | 4.8% | -2.1% | -3.1% | 2.0% | -11.5% | -6.0% | -9.6% | -1.1%

Just DT40 TDP1 no CPT, miR-21 reporter and TDP1 inh, for three of the compounds above:
cpd	Molecule	DT40 TDP1 no CPT	miR-21 reporter	TDP1 inh
27	O=C(C1=C[C@H](c2ccc3c(c2)OCO3)C[C@H](OCc2ccc(CO)cc2)O1)N1CCN(Cc2ccc3c(c2)OCO3)CC1	?	15.0%	3.8%
39	C=CCNC(=O)/C(C#N)=C/c1cn(-c2ccccc2)nc1-c1ccc(OC)c([N+](=O)[O-])c1	?	-13.4%	-2.6%
25	Cc1ccc(NC(=O)c2ccccc2)cc1	-17.4%	-44.6%	4.1%

Screens as filed in PubChem BioAssay.
